Ab-14 heavy chain CDR variants: yeast mating affinities

Values reported by Li et al. 2023, doi:10.1038/s41467-023-39022-2 (FLAb copy).

Binding partner: SARS-CoV-2 spike HR2 peptide, sequence PDVDLGDISGINAS.

Parent: Ab-14, a human scFv built as VH, a 15-residue (Gly4Ser)3 linker, VL. Only the CDRs of the heavy chain vary.
VH: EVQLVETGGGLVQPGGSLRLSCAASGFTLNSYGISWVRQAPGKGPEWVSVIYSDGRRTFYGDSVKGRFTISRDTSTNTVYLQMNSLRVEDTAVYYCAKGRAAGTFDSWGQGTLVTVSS
VL: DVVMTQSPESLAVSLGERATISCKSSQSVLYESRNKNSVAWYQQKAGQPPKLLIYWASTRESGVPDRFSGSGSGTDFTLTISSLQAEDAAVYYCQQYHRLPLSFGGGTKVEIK

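Phage display of a naive human antibody library on the peptide gave the parent. This is the validation round: designs drawn from the data on random variants, tested in the same kind of assay. Their group label is 14H_Rand (Rand: our label for a block that the file lists under HC and that is probably the random mutants of the ten best first-round binders). The assay is AlphaSeq: two haploid yeast populations carry antibody and antigen on their surface. Pairs that bind mate more often; barcode pairs of the diploids are counted by sequencing. Read counts were normalised to the haploid input and turned into Kd by a linear fit to BCL2-family pairs of known affinity, for each replicate. Mating was done six times.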

Substitutions are numbered in sequence along the VH above, starting at 1 (not Kabat).
Affinities are written as log10 Kd with Kd in nM; a lower number is a better binder.
The mean shown is taken over the replicates in which the pair was detected.
A pair that was not seen in that replicate is written "nd"; this usually means weak binding, but a binder can also be missed.

changes	log10 Kd (nM) by replicate	log10 Kd (nM), mean	empty controls
T28P+N30D+S35F+R57N+Y60L+F105A+D106L	nd / nd / nd / 2.00 / 2.78 / nd	2.39	0 of 18
G33E+G61D+S63L+R100Q+A101L	nd / nd / nd / nd / nd / nd	nd	0 of 18
F59W+G61S+A102G	nd / nd / nd / nd / nd / nd	nd	0 of 18
S31E+D62L+V64K+G103V+S107Q	nd / nd / nd / nd / nd / nd	nd	0 of 18
F27G+N30D+S35G+G61T+D62I+G103Q+F105A+D106L	nd / nd / nd / nd / nd / nd	nd	0 of 18
I34K+S53A+S63D+G99N+F105N+D106K	2.59 / nd / nd / nd / nd / nd	2.59	1 of 18 (4.69)
S31Q+G33E+F59A+G61S+T104F	nd / nd / nd / nd / nd / nd	nd	1 of 18 (2.34)
L29C+S31E+Y60V+G61T+A101F+A102V	nd / nd / nd / nd / nd / nd	nd	0 of 18
S31E+D54Q+G61T+A101F+T104A	nd / nd / nd / nd / nd / nd	nd	0 of 18
S31E+S35E+G99H+G103V+S107Q	nd / nd / nd / nd / nd / nd	nd	0 of 18
N30E+S31D+G103L+D106I	nd / nd / nd / nd / nd / nd	nd	0 of 18
F27E+S31D+I34R+G55C+F59E+G103L+D106I	nd / nd / nd / nd / nd / nd	nd	0 of 18
S31L+G61S+T104F	2.05 / nd / 2.19 / 1.80 / 1.69 / 2.19	1.98	2 of 18 (2.34)
L29W+N30D+R56H+T58L+G99C+F105A+D106L+S107A	nd / nd / nd / nd / nd / nd	nd	0 of 18
S31E+F59V+G103V+F105K+S107Q	nd / nd / nd / nd / nd / nd	nd	1 of 18 (1.67)
N30D+I34P+F105V+D106L	nd / nd / nd / nd / nd / nd	nd	0 of 18
G61S+A102G+F105Y	nd / nd / 1.57 / nd / nd / nd	1.57	0 of 18
T28K+S31E+I51V+D54W+G61C+G103V+S107Q	nd / nd / nd / nd / nd / nd	nd	0 of 18
F27H+S35M+G61D+R100Q+A101L	nd / nd / nd / nd / nd / nd	nd	0 of 18
S31E+A101N+G103V+S107Q	nd / nd / nd / nd / nd / nd	nd	0 of 18
D54G+G61S+A102G+G103N	nd / nd / nd / nd / nd / nd	nd	0 of 18
I51E+G61S+A102G	nd / nd / 1.05 / 1.22 / nd / 0.64	0.97	0 of 18
T28D+Y32Q+G55M+V64H+T104W+D106N	nd / nd / nd / nd / nd / nd	nd	0 of 18
T28D+T58I+Y60G+A101P+T104W+D106N	nd / nd / nd / nd / 2.11 / nd	2.11	0 of 18
S31D+A101R+G103L+D106H	nd / nd / nd / nd / nd / nd	nd	0 of 18
Y52L+R100Q+A101L	nd / nd / nd / nd / nd / nd	nd	1 of 18 (1.80)
F27T+T28D+L29H+S63A+V64L+R100D+T104Q+D106N	nd / nd / nd / nd / nd / nd	nd	0 of 18
Y32K+S35G+Y52N+G61S+A101T+A102Q	nd / nd / nd / nd / nd / nd	nd	1 of 18 (1.55)
S31E+G99T+G103V+S107Q	nd / nd / nd / nd / nd / nd	nd	0 of 18
G26P+T28D+G99N+G103F+T104W+D106N	nd / nd / nd / nd / nd / nd	nd	0 of 18
G26C+S31Q+I34N+G61S+T104F	nd / nd / nd / nd / nd / nd	nd	0 of 18
S31Y+S35H+G61S+A102G	nd / nd / nd / nd / nd / nd	nd	0 of 18
S31D+T58C+G103L+F105K+D106I	nd / nd / nd / nd / nd / nd	nd	0 of 18
F27K+R56H+G61D+R100Q+A101L+T104I	nd / nd / nd / nd / nd / nd	nd	0 of 18
N30D+G33M+F105A+D106L	nd / nd / nd / nd / nd / nd	nd	0 of 18
S31M+G61S+T104F+S107L	nd / nd / nd / nd / nd / nd	nd	0 of 18
S35Q+F59V+G61S+A101C+A102G	nd / nd / nd / nd / nd / nd	nd	0 of 18
L29V+G61S+A101N+A102H	nd / nd / nd / nd / nd / nd	nd	1 of 18 (-0.47)
N30D+D106L	nd / nd / nd / nd / nd / nd	nd	0 of 18
T28D+D54C+R57M+T58F+S63G+T104W+D106N	nd / nd / nd / nd / nd / nd	nd	0 of 18
S31D+Y52D+A101R+G103L+D106I	nd / nd / nd / nd / nd / nd	nd	0 of 18
T28D+Y60V+T104W+D106N	nd / nd / nd / nd / nd / nd	nd	0 of 18
S31E+G55K+G61A+A101D	nd / nd / nd / nd / nd / nd	nd	0 of 18
Y60G+G61D+R100Q+A101F+T104K	nd / nd / nd / nd / nd / nd	nd	0 of 18

Of ten entries with the parent sequence, four were seen in most replicates (averages 0.34 to 2.37), three in one and three in none, so single entries are noisy.
The range of this assay differs from that of the first round, and the authors advise against merging the two.
The authors averaged sequences with at least three values out of six and counted those with two or fewer as poor binders.
Background: pairings of all heavy chain designs with three empty control strains gave a value in 1% of cases (median 2.08, 5th percentile 0.84). Values in that range, when seen in few replicates, are hard to tell from nonspecific mating. Also given: how often the same scFv was detected with the empty control strains, with their mean in brackets.